# UUG fidelity – alters start codon recognition fidelity in yeast; AID 602363; activity score, % at 18.7 µM; 350,000 tested, 0.13% active; S. cerevisiae UUG-firefly luciferase reporter, luminescence/redox ratio;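 active means replicate mean at a twofold rise or more, about +100% in these data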;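 further: firefly luciferase made from a UUG start codon reports start codon fidelity; reporter light over untreated wells divided by growth signal over untreated wells; some hits fall short of that in this replicate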
# miR-122 sensor – miR-122 Renilla sensor signal increase in Huh7, primary screen, miR-122 inhibitor project, cell-based, single point, plate reader; Huh7 miR-122 Renilla luciferase sensor, 48 h; neutral wells = 0, positive control = 100; activation (reporter increase), % at 12.5 µM; 0.3% of 340,000 active; AID 602342, 2012;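 active = mean replicate activation score at least 90 and every replicate individually at or above 90; inconclusive = only one of the two criteria met; inactive = neither criterion met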;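 also: higher luciferase means less miR-122 activity so hits act as miR-122 inhibitors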
# LGR2 antag – inhibitors of bursicon-induced LGR2 CRE-luciferase signal, primary screen, cell-based, HEK293, CRE-luciferase reporter, bursicon stimulation; bursicon-stimulated, 4 h; Drosophila bursicon receptor LGR2 (rickets); inhibition, % at 9.99 µM; 0.35% of 380,000 active; AID 720647, 2013;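 active = drop in luminescence signal, shown as inhibition above about 50% in the replicate tests, limit read from the data, passing the limit was not always enough; inconclusive = probably only some replicates passing the limit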;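 also: agonist challenge used bursicon conditioned medium at about half maximal strength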
# F508del corr – F508del CFTR correction, initial screen, CFBE line, single point | 0.36% of 350,000 active | activity (quench increase), % at 7.58 µM | CFBE cells, YFP halide quenching; stimulated with forskolin plus potentiator P3; % fluorescence drop versus neutral controls | AID 720511, 2013;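 active = mean added fluorescence quench of at least 8% versus neutral control, with both replicates also reaching 8%; inconclusive = only one of the mean or replicate conditions met; inactive = mean below 8% and not both replicates reaching 8%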;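 also: cells transiently co-express mutant CFTR-F508del with the halide-sensitive YFP; corrector assay measuring rescue of mutant channel to the surface after 24 h compound exposure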
# EWS-Fli inh – EWS/Fli-driven NR0B1 reporter inhibitors, primary screen, A673 cells, NR0B1 luciferase, luminescence, MLPCN library; viability-normalised; inhibition, % at 12.6 µM; 0.67% of 350,000 active; AID 651661, 2012;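 active = mean inhibition of at least 50% after viability correction, with every replicate also passing that limit; inconclusive = mean reaches 50% but only one of two replicates passes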;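 also: firefly luciferase signal divided by Alamar Blue viability fluorescence both relative to DMSO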
# PglD DTNB – C. jejuni PglD acetyltransferase inhibitors, primary screen, biochemical, DTNB colorimetric, single point; 0.098% of 360,000 active; purified PglD enzyme, DTNB colorimetric CoA detection; inhibition, % at 12.5 µM; in the data active = inhibition above about 16%, passing the limit was not always enough; inconclusive = no clear call, values can overlap the other calls
# Starred values were filed as active, the others as inactive; ? = inconclusive; nt = no result; [ ] = dose if it differs, or a comment. In the library only some 1.3% were active in any assay of this set; here they are far more common.
nr	Compound	UUG fidelity	miR-122 sensor	LGR2 antag
1	CCc1nn(C(C)C(=O)N2CCN(c3ccc(OC)cc3)CC2)c(=O)c2cc3occc3n12 (configuration not stated)	-12	35	13
2	COc1ccc2c3c([nH]c2c1)[C@@H](CO)N(CC1CC1)CC31CN(C(=O)C2CCOCC2)C1	nt	nt	10
3	N#Cc1ccc(CSc2nnc(NC(=O)c3ccc(=O)[nH]c3)s2)cc1	-9	-3	-4
4	CCCOc1ccc(F)cc1-c1cc(C(=O)Nc2cc(OC)c(OC)c(OC)c2)[nH]n1	-4	-8	51*
5	COc1ccc(C(=O)OCC(=O)N2C(C)CCCC2C)cc1S(=O)(=O)N1CCOCC1 (configuration not stated)	1	2	-11
6	CCCC(=O)Nc1cccc2c1CCCC2	-9	1	nt
7	CCCCNC(=O)CSc1nc2ccc(C)cc2[nH]1	nt	nt	-14
8	COc1ccc(CNC(=O)CSc2nc3ccc(C)cc3[nH]2)cc1	-7	0	-2
9	Cc1ccc2nc(SCC(=O)c3c(N)n(C)c(=O)n(C)c3=O)[nH]c2c1	nt	nt	11
10	CCN(CC)CCCNc1nc2ccccc2c2nc(-c3ccncc3)nn12	-3	-14	-13
11	Clc1ccc2[nH]cc(-c3nnnn3-c3ccc4ccccc4c3)c2c1	nt	212*	nt
12	C=C1CC(Cn2cc(Br)c(=O)[nH]c2=O)(c2ccc(-c3ccccc3)cc2)OC1=O (configuration not stated)	nt	nt	76*

nr	F508del corr	EWS-Fli inh	PglD DTNB
1	2	55*	-4
2	1	-9	nt
3	1	6	-3
4	1	22	5
5	11*	-15	-6
6	nt	nt	-4
7	17*	7	nt
8	3	-21	2
9	-6	54*	nt
10	15*	18	-3
11	nt	nt	nt
12	-1	53*	nt

# Ordered by SMILES length (highest first): four of the compounds above.
nr	Compound	UUG fidelity	miR-122 sensor	LGR2 antag
1	CCc1nn(C(C)C(=O)N2CCN(c3ccc(OC)cc3)CC2)c(=O)c2cc3occc3n12 (configuration not stated)	-12	35	13
9	Cc1ccc2nc(SCC(=O)c3c(N)n(C)c(=O)n(C)c3=O)[nH]c2c1	nt	nt	11
10	CCN(CC)CCCNc1nc2ccccc2c2nc(-c3ccncc3)nn12	-3	-14	-13
7	CCCCNC(=O)CSc1nc2ccc(C)cc2[nH]1	nt	nt	-14

nr	F508del corr	EWS-Fli inh	PglD DTNB
1	2	55*	-4
9	-6	54*	nt
10	15*	18	-3
7	17*	7	nt

# Next section
nr	Compound	UUG fidelity	miR-122 sensor	LGR2 antag
13	COC(=O)CN(c1ccccc1F)S(=O)(=O)c1ccccc1	-11	-1	nt
14	O=C(C1CC1)N1CC(=O)N2[C@@H](CO)[C@H](c3ccc(-c4ccccc4F)cc3)[C@@H]2C1	nt	nt	-2
15	O=C(C(Cc1ccccc1)n1cccc1)N1CCCCC1 (configuration not stated)	-6	-2	-8
16	NS(=O)(=O)c1ccc(Cl)c(S(N)(=O)=O)c1	-13	2	-2
17	COc1ccc(NC(=O)N2CCCCN3[C@H](C2)[C@@H](c2ccc(C#Cc4ccccn4)cc2)[C@@H]3CO)cc1	17	-6[16.7 µM]	-1
18	O=S(=O)(c1ccccc1)N(CC(O)COc1ccccc1)c1ccccc1 (configuration not stated)	9	131*	14
19	Cc1cc(C)n(CC(O)CN(c2ccccc2)S(=O)(=O)c2ccccc2)n1 (configuration not stated)	-7	5	4
20	Cc1cc(=O)n2c3c(c4c(cc13)c(CN(C)C)cc(=O)n4C)OC2	nt	-1	105*
21	Cc1cc(=O)n(C)c2ccccc12	nt	nt	-22
22	O=C1/C(=C/c2ccco2)SC(=S)N1C1CCS(=O)(=O)C1 (configuration not stated)	nt	nt	55*
23	Cc1ccc(NC(=O)COC(=O)CCC2CCCC2)c(Br)c1	nt	nt	5
24	Cc1ccc(-c2ccc([C@H]3[C@@H](CO)N4CCCCN(C(=O)Nc5cccc(F)c5)C[C@H]34)cc2)cc1	-7	-25[16.7 µM]	12

nr	F508del corr	EWS-Fli inh	PglD DTNB
13	nt	nt	-6
14	1	-1	nt
15	10*	-3	1
16	10*	1	-4
17	-2	-22	0
18	5	5	-6
19	nt	nt	-11
20	2	?	nt
21	1	5	nt
22	1	-2	nt
23	9.4*	-77	nt
24	8.0*	15	-3

# (list continues)
nr	Compound	UUG fidelity	miR-122 sensor	LGR2 antag
25	O=C(Nc1cccc(F)c1)N1CCCCN2[C@H](CO)[C@@H](c3ccc(C#Cc4ccccc4)cc3)[C@@H]2C1	-17	2[16.7 µM]	10
26	COc1ccccc1NC(=O)N1CCCCN2[C@@H](CO)[C@@H](c3ccc(C#CC4CCCC4)cc3)[C@@H]2C1	-17	-30[16.7 µM]	16
27	O=C(Nc1ccc(F)cc1)N1CCCCN2[C@H](C1)[C@H](c1ccc(-c3cccc(F)c3)cc1)[C@@H]2CO	8	-3[16.7 µM]	2
28	O=C(Nc1ccc(F)cc1)N1CCCCN2[C@H](CO)[C@H](c3ccc(-c4cccc(F)c4)cc3)[C@H]2C1	19	-21[16.7 µM]	2
29	O=C(Nc1cccc(F)c1)N1CCCCN2[C@@H](CO)[C@H](c3ccc(C#CC4CC4)cc3)[C@@H]2C1	9	-29[16.7 µM]	-9
30	COc1cc2c(c3oc(-c4ccccc4)cc(=O)c13)C=CC(C)(C)O2	-17	-16	-4
31	C/C=C/c1ccc([C@@H]2[C@@H](CO)N[C@@H]2CN(CC)C(=O)c2ccccn2)cc1	2	-6[16.7 µM]	12
32	CN(C[C@@H]1N[C@H](CO)[C@H]1c1ccccc1)C(=O)c1ccccn1	-3	-14[16.7 µM]	11
33	Cc1ccc2nc3ccc(N4CCCC4)nn3c(=O)c2c1	-32	0	-57
34	CC1CCCN(c2ccc3nc4ccccc4c(=O)n3n2)C1 (configuration not stated)	nt	nt	62*
35	Cc1ccc(C)c(NS(=O)(=O)c2ccc(NC(=O)CSc3ccc(Cl)cc3)cc2)c1	nt	nt	-12
36	CC(=O)NS(=O)(=O)c1ccc(NC(=O)CSc2ccc(Cl)cc2)cc1	nt	nt	0

nr	F508del corr	EWS-Fli inh	PglD DTNB
25	2	6	-2
26	-5	71*	-2
27	8.9*	-7	9
28	7	30	3
29	8.6*	20	4
30	1	26	0
31	3	5	-1
32	8.6*	3	5
33	nt	nt	-1
34	0	43	nt
35	nt	-2	nt
36	9.6*	12	nt

# The listing continues.
nr	Compound	UUG fidelity	miR-122 sensor	LGR2 antag
37	COc1ccc(NC(=O)c2cc([N+](=O)[O-])ccc2O)cc1	nt	nt	96*
38	On1c(-c2ccccc2)nc2ncccc21	-10	0	-3
39	N#Cc1cccc(-c2csc(C(O)(c3ccccc3)C(F)(F)F)n2)c1 (configuration not stated)	-2	16	11
40	Fc1ccccc1/C=N/NC(=S)Nc1ccc(Cl)cc1Cl	-13	6	-26
41	COc1ccc(Cn2cnc3c4cc(F)ccc4n(C)c3c2=O)cc1	-16	2	-4
42	CCOC(=O)c1ccc(N=c2sc(C(=O)OC)cc(=O)n2-c2ccc(C(=O)OCC)cc2)cc1	-34	-5	58*
43	COC(=O)c1cc(=O)n(-c2ccccc2)c(=Nc2ccccc2)s1	25	nt	nt
44	O=C(Nc1ccccn1)c1csc2c1CCCC2	nt	nt	-86
45	O=C(Nc1ccccn1)c1onc2c1CCCC2	-29	11	79*

nr	F508del corr	EWS-Fli inh	PglD DTNB
37	0	73*	nt
38	0	13	-7
39	-2	58*	-6
40	12*	36	2
41	3	-10	-2
42	-1	13	2
43	-2	2	-1
44	-2	-107	nt
45	nt	nt	5

# Screening results: PubChem, Broad Institute
